Assay results as given in US20060018864A1, “Cosmetic preparation containing glycerylamino acid derivative” (priority 2002, published 2006).

What was measured:
[1] = Moisturizing effect measurement employing keratin powder (ground wool); type: physicochemical; conditions: (B/A)×100: water retained after further 6 hours at 20° C., 20.0% relative humidity, relative to water absorbed at 79.2% relative humidity for 48 hours
Description: For the constant-humidity bath under 20.0% of relative humidity, saturated aqueous potassium acetate solution was employed.
Moisturizing effect was evaluated by the following criteria,
Moisturizing effect rating criteria • ⊚: 60 or more • ◯: 50 or more and less than 60 • Δ: 40 or more and less than 50 • X: Less than 40

[2] = Moisture-absorption ability measurement employing keratin powder (ground wool); type: physicochemical; conditions: keratin powder with sample, 20° C., 79.2% relative humidity, 48 hours; absorbed water per 1 g of keratin powder
Description: [Method of Moisture-Absorption Ability Measurement Carried Out by Employing Keratin Powder (Ground Wool)]
Moisture-absorption ability was evaluated by the following criteria.
Moisture-absorption ability rating criteria • ⊚: Amount of absorbed water per 1 g of keratin powder is 0.60 g or more. • ◯: Amount of absorbed water per 1 g of keratin powder is 0.50 g or more and less than 0.60 g • Δ: Amount of absorbed water per 1 g of keratin powder is 0.40 g or more and less than 0.50 g • X: Amount of absorbed water per 1 g of keratin powder is less than 0.40 g [Method of Moisturizing Effect Measurement Carried Out by Employing Keratin Powder (Ground Wool)]

In the case of “1 sodium N-glycerylaspartate [Glyceryl derivative of aspartic acid]”, the Moisturizing effect [1] was “⊚ (60 or more)” and the Moisture-absorption ability [2] was “⊚ (Amount of absorbed water per 1 g of keratin powder is 0.60 g or more)”.
